Legend:
mice = conditions: LD50 mice oral / dose giving 100% inhibition of catatonia;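 note: LD50 part of every column derived from compounds dosed in aqueous solution, deaths followed over a 10-day observation period after dosing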
[1] = test system: reserpine-induced catatonia; test: Suppression of reserpine-induced catatonia (curative treatment); type: in vivo, rat (male, OFA strain); conditions: versus amantadine 80 mg/kg
Protocol: Batches of 5 male rats of the OFA strain, weighing 150 to 200 g were given 5 mg/kg of reserpine by intraperitoneal route. One hour and 45 minutes later, namely when the animals were in state of catatonia, an aqueous dose of the compound to be studied was administered by oral route to all the animals with the exception of the control group.
The progress of the catatonia was then noted following the scale used in the tests described hereabove.
The maximum score was thus 5 per batch which means that all the animals of the batch were considered to be still in a state of catatonia.

[2] = test system: neuroleptic-induced catatonia (prochlorperazine); test: Suppression of neuroleptic-induced catatonia (curative treatment); type: in vivo, rat (male, OFA strain); conditions: versus amantadine 80 mg/kg
Protocol: Fifty-five minutes later, an oral dose in aqueous solution of the compound to be studied was administered to all the animals with the exception of the control group. The progress of the catatonia was noted following the same scale as that used in the tests described above.

Compound: CCCC(N)(CCC)CCC
- Index LD50/ED100 (mice): ≈ 33

Compound: CCCC(N)(CCC)CCC [Compound 1]
- activity relative to amantadine, curative treatment, reserpine-induced catatonia [1]: at least 32 times
- Index LD50/ED100 (mice): 20
- activity relative to amantadine, curative treatment, neuroleptic-induced catatonia [2]: at least 16 times

Source: patent publication US4057644A, “Active derivatives of methylamine in therapeutic compositions and methods of use” (priority 1976, dated 1977)
